Data taken from publication PMC5164969 (Bioorganic & medicinal chemistry, 2016).

Assay: Mammalian cell cytotoxicity, summary over both cell lines
Type: cell-based
Settings: human

Cl.N=C(N)N/N=C/c1ccc(-c2ccc(/C=N/Nc3ccc(F)cc3)cc2)cc1 [Compound 7Ac]
IC50: 4.4 to 13.9 µg/mL
